The numbers were not newly measured in patent US20190160050A1, “SMALL MOLECULE INHIBITION FOR PREVENTING OR TREATING FIBROTIC DISEASES” (THE REGENTS OF THE UNIVERSITY OF CALIFORNIA, priority 2016, published 2019), which cites them from elsewhere.

The chains behind the UniProt entries cited, without tags or fusion partners. Residues count along the entry.
UniProt P08069, 31-1367, species assumed: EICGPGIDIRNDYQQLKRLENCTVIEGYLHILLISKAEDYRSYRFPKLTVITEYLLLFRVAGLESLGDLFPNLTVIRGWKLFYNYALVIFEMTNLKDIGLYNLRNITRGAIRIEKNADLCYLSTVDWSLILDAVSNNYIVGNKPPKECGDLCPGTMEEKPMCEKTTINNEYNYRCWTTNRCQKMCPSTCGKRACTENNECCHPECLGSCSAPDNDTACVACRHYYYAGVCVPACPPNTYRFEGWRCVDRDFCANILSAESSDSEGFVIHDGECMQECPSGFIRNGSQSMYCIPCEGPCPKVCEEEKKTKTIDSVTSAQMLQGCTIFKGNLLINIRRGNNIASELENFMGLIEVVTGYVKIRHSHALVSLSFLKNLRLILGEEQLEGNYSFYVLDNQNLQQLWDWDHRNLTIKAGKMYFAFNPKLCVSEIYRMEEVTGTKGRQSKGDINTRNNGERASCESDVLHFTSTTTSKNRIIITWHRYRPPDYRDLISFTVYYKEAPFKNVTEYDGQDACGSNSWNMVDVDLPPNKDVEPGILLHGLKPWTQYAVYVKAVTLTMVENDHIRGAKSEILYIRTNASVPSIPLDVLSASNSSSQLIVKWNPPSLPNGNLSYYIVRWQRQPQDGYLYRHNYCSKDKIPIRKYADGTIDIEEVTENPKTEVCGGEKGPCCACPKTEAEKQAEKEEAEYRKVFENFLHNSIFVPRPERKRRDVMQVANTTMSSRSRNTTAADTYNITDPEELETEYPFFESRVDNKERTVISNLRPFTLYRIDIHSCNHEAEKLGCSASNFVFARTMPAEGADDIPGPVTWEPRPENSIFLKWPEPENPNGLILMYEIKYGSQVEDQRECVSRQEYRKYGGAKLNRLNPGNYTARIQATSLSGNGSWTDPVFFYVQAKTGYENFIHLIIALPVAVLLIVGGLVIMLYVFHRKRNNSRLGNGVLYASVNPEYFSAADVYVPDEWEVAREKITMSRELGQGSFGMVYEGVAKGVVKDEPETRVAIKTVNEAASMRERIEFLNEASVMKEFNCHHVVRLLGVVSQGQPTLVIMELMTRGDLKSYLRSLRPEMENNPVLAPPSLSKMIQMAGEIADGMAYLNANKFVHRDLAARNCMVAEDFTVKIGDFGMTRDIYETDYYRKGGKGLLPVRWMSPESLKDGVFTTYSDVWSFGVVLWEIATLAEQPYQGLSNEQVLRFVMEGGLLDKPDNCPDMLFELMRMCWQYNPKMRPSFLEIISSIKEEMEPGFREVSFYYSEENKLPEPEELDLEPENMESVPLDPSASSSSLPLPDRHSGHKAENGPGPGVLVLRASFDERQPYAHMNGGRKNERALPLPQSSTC

The data set concerns the target IGF1R (Homo sapiens, UniProt P08069). The note with it: read-out: IC50 for suppression of IGF1R autophosphorylation.

On to “N-(5-chloro-2-methoxyphenyl)-N-(2-methyl-4-quinolinyl)urea [PQ 401]”, for which the IC50 – broadly, the concentration that inhibits the measured activity by half – is 12 µM.
